Measurements reported in patent US9315514B2, “1,3-dioxanomorphides and 1,3-dioxanocodides” (dated 2016).

Chains of the proteins cited; added tags and fusions are not shown.
UniProt P41145, whole entry: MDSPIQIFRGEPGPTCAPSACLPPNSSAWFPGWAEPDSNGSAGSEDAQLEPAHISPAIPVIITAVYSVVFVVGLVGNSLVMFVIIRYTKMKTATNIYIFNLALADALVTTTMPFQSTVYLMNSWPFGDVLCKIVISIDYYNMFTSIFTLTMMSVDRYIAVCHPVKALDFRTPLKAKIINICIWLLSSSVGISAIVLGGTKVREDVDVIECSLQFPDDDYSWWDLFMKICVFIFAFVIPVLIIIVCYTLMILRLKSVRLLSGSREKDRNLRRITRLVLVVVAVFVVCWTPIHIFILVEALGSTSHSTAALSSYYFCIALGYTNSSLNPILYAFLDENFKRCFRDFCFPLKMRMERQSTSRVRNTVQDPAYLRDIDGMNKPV
UniProt P35372, whole entry: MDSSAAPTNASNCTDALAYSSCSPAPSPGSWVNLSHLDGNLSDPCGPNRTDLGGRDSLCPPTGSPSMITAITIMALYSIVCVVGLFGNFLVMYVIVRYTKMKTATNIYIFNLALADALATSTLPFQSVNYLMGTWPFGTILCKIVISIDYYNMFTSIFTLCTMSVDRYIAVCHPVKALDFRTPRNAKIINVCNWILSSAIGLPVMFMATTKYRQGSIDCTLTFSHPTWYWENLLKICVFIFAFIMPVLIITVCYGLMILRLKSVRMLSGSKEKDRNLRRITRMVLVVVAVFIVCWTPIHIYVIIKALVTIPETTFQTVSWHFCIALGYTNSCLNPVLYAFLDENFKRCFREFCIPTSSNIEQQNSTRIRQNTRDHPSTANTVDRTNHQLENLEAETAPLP
UniProt P41146, whole entry: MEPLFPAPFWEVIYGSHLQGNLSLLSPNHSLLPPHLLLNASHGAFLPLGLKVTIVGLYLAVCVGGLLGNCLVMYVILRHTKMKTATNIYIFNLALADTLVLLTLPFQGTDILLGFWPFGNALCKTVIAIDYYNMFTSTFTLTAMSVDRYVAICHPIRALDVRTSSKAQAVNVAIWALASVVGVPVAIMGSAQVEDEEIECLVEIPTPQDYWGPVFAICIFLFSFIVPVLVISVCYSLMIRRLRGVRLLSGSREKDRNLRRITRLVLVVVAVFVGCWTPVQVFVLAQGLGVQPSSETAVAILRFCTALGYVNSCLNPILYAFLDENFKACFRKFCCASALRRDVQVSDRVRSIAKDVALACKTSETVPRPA

Assays:
[1] = biological target: κ-opioid receptor (Homo sapiens (Human), UniProt P41145); test: κ-opioid receptor [35S]GTPγS functional assay; conditions: for κ-opioid receptor Emax: maximal effect relative to U69,593; for EC50: read-out: κ-opioid receptor EC50, κ GTP EC50
[2] = biological target: μ-opioid receptor (Homo sapiens (Human), UniProt P35372); test: μ-opioid receptor [35S]GTPγS functional assay; conditions: for μ-opioid receptor Emax: maximal effect relative to DAMGO; for EC50: read-out: μ-opioid receptor EC50, μ GTP EC50
[3] = biological target: δ-opioid receptor (Homo sapiens (Human), UniProt P41143); test: δ-opioid receptor activity in PerkinElmer ligand binding and cellular assays
[4] = biological target: ORL-1 receptor (Homo sapiens (Human), UniProt P41146); test: ORL-1 receptor activity in PerkinElmer ligand binding and cellular assays

SMILES	κ-opioid receptor Emax [1]	EC50 [1]	μ-opioid receptor Emax [2]	EC50 [2]	δ-opioid receptor activity [3]	ORL-1 receptor activity [4]
CCCC1O[C@]23CC[C@@]4(C[C@@H]2[C@@](C)(C(C)(C)C)O1)[C@H]1Cc2ccc(O)c5c2[C@@]4(CCN1CC1CC1)[C@H]3O5 (some centres unmarked)	13.67%	9.48 nM	50.67%	3.54 nM	–	–
CC(C)(C)[C@@]1(C)OCO[C@]23C=C[C@@]4(C[C@@H]21)[C@H]1Cc2ccc(O)c5c2[C@@]4(CCN1CC1CC1)[C@H]3O5	25%	7.76 nM	46%	1.56 nM	shown δ-opioid receptor activity	–
CCC1O[C@]23CC[C@@]4(C[C@@H]2[C@@](C)(C(C)(C)C)O1)[C@H]1Cc2ccc(O)c5c2[C@@]4(CCN1CC1CC1)[C@H]3O5 (some centres unmarked)	16.00%	4.42 nM	59.67%	1.4 nM	–	–
CN1CC[C@]23c4c5ccc(O)c4O[C@H]2[C@@]24CC[C@@]3(C[C@@H]2[C@@](C)(Cc2ccccc2)OCO4)[C@H]1C5	–	–	–	–	shown δ-opioid receptor activity	shown ORL-1 receptor activity
COc1ccc2c3c1O[C@H]1[C@@]45CCC6(C[C@@H]4[C@@](C)(C(C)(C)C)OCO5)[C@@H](C2)N(C)CC[C@]316	–	–	–	–	shown δ-opioid receptor activity	shown ORL-1 receptor activity
CC(C)(C)[C@@]1(C)OC(c2ccccc2)O[C@]23CC[C@@]4(C[C@@H]21)[C@H]1Cc2ccc(O)c5c2[C@@]4(CCN1CC1CC1)[C@H]3O5 (some centres unmarked)	0.33%	> 20 nM	33.33%	5.35 nM	–	–
CC(C)(C)[C@@]1(C)OCO[C@]23CC[C@@]4(C[C@@H]21)[C@H]1Cc2ccc(O)c5c2[C@@]4(CCN1CC1CC1)[C@H]3O5	16.67%	22.7 nM	46.67%	0.86 nM	shown δ-opioid receptor activity	–
